This passage reports IC50 results from US9670214B2, “Small molecule myristate inhibitors of Bcr-abl and methods of use” (DANA-FARBER CANCER INSTITUTE, INC., priority 2007, dated 2017).

Experiment [1] concerns the target Bcr-abl T315I (Ba/F3.p210^T315I cells) (Homo sapiens, UniProt P00519, T315I, cells depend on it). The experiment can be described thus: Proliferation assay (MTT), T315I mutant Bcr-abl expressing Ba/F3 cells. The class given is cell-based, murine. The conditions noted are these: 48 h, drug concentrations 0.005-10 μM. The source says:
(§1) Wild type Bcr-abl expressing 32D (32D.p210) and Ba/F3 (Ba/F3.p210) cells, and mutant Bcr-abl expressing cell lines Ba/F3.p210^G250E, Ba/F3.p210^E255V, Ba/F3.p210^T315I, Ba/F3.p210^F317L and Ba/F3.p210^M351T, as well as Ba/F3 cells transformed with Flt-3-ITD kinase. Additional assays included Ba/F3 cells expressing the fusion protein kinases TEL-PDGFRβ, TEL-JAK1, NPM-ALK, TEL-cKit, Tel-Bmx, Tel-FGR3, Tel-Lck and Ba/F3.TPR-met cells. All the above cell lines were maintained in RPMI-1640 medium with L-Glutamine, 10% FBS and 1 mg/ml geneticin (Gibco).
(§2) Cells (0.3-0.6×10^6/ml) were plated in duplicate or triplicate in 96-well plates containing increasing drug concentrations (0.005-10 μM). After incubation at 37° C. in 5% CO2 for 48 h, the effect of the compounds on cell viability was determined by MTT (Promega) colorimetric dye reduction method. Inhibition of cell proliferation was calculated as a percentage of growth of DMSO treated cells, and IC50 values were determined with Microsoft Excel XLfit3.

The target in experiment [2] is Bcr-abl (Ba/F3.p210 cells) (Homo sapiens, UniProt P00519). Briefly: Proliferation assay (MTT), wild type Bcr-abl expressing Ba/F3 cells. The class given is cell-based, murine. The conditions noted are these: 48 h, drug concentrations 0.005-10 μM.
Source text: as §1, §2

In experiment [3] the test system is Ba/F3 cells (IL-3 dependent murine pro-B cell line). The experiment can be described thus: Proliferation assay (MTT), parental Ba/F3 cells. The class given is cell-based. As to conditions: Mus musculus, 48 h, drug concentrations 0.005-10 μM, read-out: BaF3. Here is the method: Interleukin-3 (IL-3) dependent murine pro-B cell line, Ba/F3, and murine myeloid precursor cell line, 32D, were maintained in RPMI-1640 medium supplemented with L-Glutamine, 10% FBS and 10 U/ml recombinant murine IL-3 (Roche). Mo7e human megakarioblastic cell line was grown in RPMI-1640 medium supplemented with L-Glutamine, 20% FBS and 5 ng/ml recombinant human granulocyte macrophage cell stimulating factor (GM-CSF) (R&D Systems) or 200 ng/ml stem cell factor (SCF) (Biosource).
as §2

Structures are written as SMILES.

Regarding `Cc1c(Nc2ccc(OC(F)(F)F)cc2)ncnc1-c1cnn(CC(C)C)c1`, in experiment [1], the IC50 is 1.55 µM.
In experiment [2], `Cn1cnc2ncnc(Nc3ccc(OC(F)(F)F)cc3)c21` returned an IC50 of 7.69 µM.
Regarding `COc1ccc(Cn2ccc3c(Nc4ccc(OC(F)(F)F)cc4)ncnc32)cc1`, the results for the IC50 in experiment [1] and in experiment [2] were more than 10 µM and 9.68 µM, respectively.
For `CCOC(=O)C1CCCN(C(=O)c2cc3c(Nc4ccc(OC(F)(F)F)cc4)ncnc3n2C)C1` (stereo not drawn), in that order: more than 10 µM and 6.34 µM.
Taken in the same sequence, the figures for `CN1CCCN(C(=O)c2ccc3c(Nc4ccc(OC(F)(F)F)cc4)ncnc3c2)CC1` were more than 10 µM and 5.78 µM.
For `CCOC(=O)Cc1cnc(NC(=O)c2ccc3c(Nc4ccc(OC(F)(F)F)cc4)ncnc3c2)s1`, in that order: 4.15 µM and 3.03 µM.
The compound `CC(C)S(=O)(=O)Nc1ccc(-c2cc(Nc3ccc(OC(F)(F)F)cc3)ncn2)cc1` displayed an IC50 in experiment [1] of 2.25 µM.
Same read-out and setting: the value for `Cc1c(Nc2ccc(OC(F)(F)F)cc2)ncnc1-c1cnn(Cc2ccccc2)c1` was 8.72 µM.
Turning to `O=C(c1ccc2c(Nc3ccc(OC(F)(F)F)cc3)ncnc2c1)N1CCC(Br)CC1`, the IC50 in experiment [2] is 3.87 µM.
Still for that read-out and setting: the value for `OC[C@H]1OC(n2cnc3c(Nc4ccc(OC(F)(F)F)cc4)ncnc32)[C@H](O)[C@@H]1O` (stereo partly drawn) was 2.14 µM; that for `COCCCNC(=O)CCn1ccc2c(Nc3ccc(OC(F)(F)F)cc3)ncnc21` was 3.26 µM.
Take `CN(C)C1CCN(C(=O)c2ccc3c(Nc4ccc(OC(F)(F)F)cc4)ncnc3c2)C1` (stereo not drawn): the IC50 in experiment [1] is more than 10 µM; in experiment [2], 2.76 µM.
For `Cn1c(C(=O)N2CCC3(CC2)C(=O)NCN3c2ccccc2)cc2c(Nc3ccc(OC(F)(F)F)cc3)ncnc21`, in that order: more than 10 µM and 6.18 µM.
In the case of `OC[C@H]1OC(n2ccc3c(Nc4ccc(OC(F)(F)F)cc4)ncnc32)[C@H](O)[C@@H]1O` (stereo partly drawn), the IC50 in experiment [1] was more than 10 µM; in experiment [2], 5.5 µM.
Turning to `O=C(c1ccc2c(Nc3ccc(OC(F)(F)F)cc3)ncnc2c1)N1CCC(O)CC1`, the IC50 in experiment [2] is 1.95 µM.
In turn, `CCS(=O)(=O)Nc1ccc(-c2cc(Nc3ccc(OC(F)(F)F)cc3)ncn2)cc1` showed an IC50 in experiment [1] of 2.18 µM.
`O=C(c1cc2c(Nc3ccc(OC(F)(F)F)cc3)ncnc2s1)N1CCN(N2CCCC2)CC1`: in experiment [1], the IC50 is 3.96 µM.
On the same count and under the same terms, then `CC(C)S(=O)(=O)c1ccc(-c2cc(Nc3ccc(OC(F)(F)F)cc3)ncn2)cc1`, with 4.8 µM; and `COCCCNC(=O)c1ccc(-c2ncnc(Nc3ccc(OC(F)(F)F)cc3)c2C)cc1`, with 1.85 µM.
For the compound `O=C(c1cc2c(Nc3ccc(OC(F)(F)F)cc3)ncnc2s1)N1CCNCC1`, the IC50 in experiment [3] is 4.07 µM; in experiment [1] it was 2.3 µM.
In experiment [1], `CCN(CC)S(=O)(=O)c1ccc(-c2ncnc(Nc3ccc(OC(F)(F)F)cc3)c2C)cc1` had an IC50 of 9.19 µM.
Still for that read-out and setting: the value for `Cc1c(Nc2ccc(OC(F)(F)F)cc2)ncnc1-c1ccc(S(N)(=O)=O)cc1` was 6.77 µM; that for `FC(F)(F)Oc1ccc(Nc2cc(-c3cnn(Cc4cccnc4)c3)ncn2)cc1` was 9 µM.
As to `Cn1c(C(=O)N2CCCC(CO)C2)cc2c(Nc3ccc(OC(F)(F)F)cc3)ncnc21` (stereo not drawn), the IC50 was more than 10 µM in experiment [1] and 1.73 µM in experiment [2].
For `COC[C@H]1CCCN1C(=O)c1cc2c(Nc3ccc(OC(F)(F)F)cc3)ncnc2n1C`, in that order: more than 10 µM and 2.18 µM.
In the case of `NC(=O)C1CCN(C(=O)c2ccc3c(Nc4ccc(OC(F)(F)F)cc4)ncnc3c2)CC1`, the IC50 was more than 10 µM in experiment [1] and 6.21 µM in experiment [2].
In the case of `OCCn1ccc2c(Nc3ccc(OC(F)(F)F)cc3)ncnc21`, the IC50 in experiment [1] is 2.79 µM; in experiment [2] it was 0.45 µM.
In experiment [1], `FC(F)(F)Oc1ccc(Nc2cc(-c3cc(NCCN4CCOCC4)ncn3)ncn2)cc1` [drawing 444] registered an IC50 of more than 10 µM.
Regarding `O=C(c1ccc2c(Nc3ccc(OC(F)(F)F)cc3)ncnc2c1)N1CCCC(CO)C1` (stereo not drawn), the figures for the IC50 in experiment [1] and in experiment [2] were more than 10 µM and 1.67 µM, respectively.
In experiment [2], `FC(F)(F)Oc1ccc(Nc2ncnc3c2ncn3CCN2CCOCC2)cc1` displayed an IC50 of 2.45 µM.
`FC(F)(F)Oc1ccc(Nc2cc(Nc3nccn3-c3cccc(C(F)(F)F)c3)ncn2)cc1`: the IC50 in experiment [1] stood at 1.48 µM.
In turn, `FC(F)(F)Oc1ccc(Nc2cc(Nc3cc(C4CC4)[nH]n3)ncn2)cc1` displayed an IC50 in experiment [1] of 3.27 µM.
Still for that read-out and setting: the value for `OCc1cc2c(Nc3ccc(OC(F)(F)F)cc3)ncnc2s1` was 3.7 µM; that for `Cc1c(Nc2ccc(OC(F)(F)F)cc2)ncnc1-c1cnn(C)c1` was 3 µM.
As for `Cn1c(C(=O)N2CCC(Br)CC2)cc2c(Nc3ccc(OC(F)(F)F)cc3)ncnc21`, the IC50 in experiment [2] came out at 1.98 µM.
Consider `CCNC(=O)c1cc2c(Nc3ccc(OC(F)(F)F)cc3)ncnc2n1C`, for which the values for the IC50 in experiment [1] and in experiment [2] were 6.93 µM and 0.45 µM, respectively.
In experiment [1], `CCCCS(=O)(=O)Nc1ccc(-c2cc(Nc3ccc(OC(F)(F)F)cc3)ncn2)cc1` yielded an IC50 of 2.89 µM.
